Sequences of proteins named here, by UniProt entry; tags and fusion partners are left off.
UniProt P41143, whole entry: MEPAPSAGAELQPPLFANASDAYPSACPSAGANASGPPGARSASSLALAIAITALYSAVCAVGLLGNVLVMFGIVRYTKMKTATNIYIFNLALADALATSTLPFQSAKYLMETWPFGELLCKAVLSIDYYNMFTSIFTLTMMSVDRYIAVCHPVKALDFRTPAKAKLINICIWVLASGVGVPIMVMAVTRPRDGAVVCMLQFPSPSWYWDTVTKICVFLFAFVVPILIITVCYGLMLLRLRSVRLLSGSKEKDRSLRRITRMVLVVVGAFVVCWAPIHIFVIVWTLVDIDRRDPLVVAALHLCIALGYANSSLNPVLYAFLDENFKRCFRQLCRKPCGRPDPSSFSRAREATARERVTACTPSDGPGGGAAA
UniProt P35372, whole entry: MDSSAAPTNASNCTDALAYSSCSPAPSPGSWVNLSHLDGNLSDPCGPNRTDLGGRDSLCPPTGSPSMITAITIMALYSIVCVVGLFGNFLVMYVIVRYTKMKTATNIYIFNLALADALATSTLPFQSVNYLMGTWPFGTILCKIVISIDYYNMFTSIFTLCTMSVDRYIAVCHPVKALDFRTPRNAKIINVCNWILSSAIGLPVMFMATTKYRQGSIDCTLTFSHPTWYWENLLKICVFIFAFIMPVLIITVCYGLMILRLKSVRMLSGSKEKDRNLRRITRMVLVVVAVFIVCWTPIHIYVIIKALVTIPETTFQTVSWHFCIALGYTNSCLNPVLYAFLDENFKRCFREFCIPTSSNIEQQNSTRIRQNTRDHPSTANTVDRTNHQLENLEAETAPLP

In ChEMBL document CHEMBL1145840, “Identification of (3R)-7-hydroxy-N-((1S)-1-[[(3R,4R)-4-(3-hydroxyphenyl)- 3,4-dimethyl-1-piperidinyl]methyl]-2-methylpropyl)-1,2,3,4-tetrahydro- 3-isoquinolinecarboxamide as a novel potent and selective opioid kappa receptor antagonist” (J Med Chem, 2003):

Key:
[1] = target: Delta-type opioid receptor (Homo sapiens, UniProt P41143); assay: Binding affinity towards human cloned Opioid receptor delta 1 using [3H]Cl-DPDPE
[2] = target: Mu-type opioid receptor (Homo sapiens, UniProt P35372); assay: Binding affinity towards human cloned Opioid receptor mu 1 using [3H]DAMGO

`CC(C)[C@@H](CN1CC[C@@](C)(c2cccc(O)c2)[C@@H](C)C1)NC(=O)[C@H]1Cc2ccc(O)cc2CN1` [JDTIC] was tested, and the Ki [1] was 29.6 nM and the Ki [2] was 0.96 nM.
